Test results as given in ChEMBL document CHEMBL4346765, “Design, synthesis and biological evaluation of novel dithiocarbamate-substituted diphenylaminopyrimidine derivatives as BTK inhibitors” (Bioorg Med Chem, 2019).

Protein sequences, listed by entry. Tags and fused reporters are not part of them. Lines headed by an entry give the natural chain unless they say otherwise; changes in a name come on top.
UniProt Q06187: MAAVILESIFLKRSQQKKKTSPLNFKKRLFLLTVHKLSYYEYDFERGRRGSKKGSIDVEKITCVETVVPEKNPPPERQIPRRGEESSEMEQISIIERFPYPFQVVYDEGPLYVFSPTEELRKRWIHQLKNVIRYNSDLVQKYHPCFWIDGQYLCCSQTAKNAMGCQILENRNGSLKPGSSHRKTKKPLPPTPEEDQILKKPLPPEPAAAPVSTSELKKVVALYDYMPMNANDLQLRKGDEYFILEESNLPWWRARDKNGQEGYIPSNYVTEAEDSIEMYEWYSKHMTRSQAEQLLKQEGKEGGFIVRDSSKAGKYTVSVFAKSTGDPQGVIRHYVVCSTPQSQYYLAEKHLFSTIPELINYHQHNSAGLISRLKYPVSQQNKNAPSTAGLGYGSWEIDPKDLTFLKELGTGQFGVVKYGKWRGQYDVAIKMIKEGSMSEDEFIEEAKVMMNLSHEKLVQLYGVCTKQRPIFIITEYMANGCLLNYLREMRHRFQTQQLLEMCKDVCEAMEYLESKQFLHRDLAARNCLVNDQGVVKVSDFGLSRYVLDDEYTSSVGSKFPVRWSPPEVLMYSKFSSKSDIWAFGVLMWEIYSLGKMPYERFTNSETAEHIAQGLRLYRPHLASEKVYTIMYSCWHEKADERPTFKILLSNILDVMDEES

Biological target: Tyrosine-protein kinase BTK (Homo sapiens, UniProt Q06187)
Assay: Inhibition of human recombinant full length BTK expressed in baculovirus in Sf9 insect cells using Poly (4:1 Glu, Tyr) as substrate incubated for 1 hr by ADP-Glo assay

C=CC(=O)Nc1cccc(Nc2nc(Nc3ccc(OCCOC)cc3)ncc2F)c1 [SPEBRUTINIB]
IC50: 2.12 nM
